In US20220362203A1, “METHOD FOR TREATING MOOD DISORDERS” (priority 2019, published 2022):

Legend:
APP/PS1 mice [1] = details: Aricept 1.0 mg/kg by gavage once a day Monday to Saturday, five weeks
APP/PS1 mice [2] = details: Aricept 1.0 mg/kg by gavage; one week after the MWM test

## COc1cc2c(cc1OC)C(=O)C(CC1CCN(Cc3ccccc3)CC1)C2 (centres unmarked) [Aricept, donepezil hydrochloride]
APP/PS1 mice [1]
  Performance in acquisition training (MWM): no significant difference from the APP/PS1 mice without treatment
APP/PS1 mice [2]
  Anxiety level (NSF feeding latency): not significantly different from or even higher than the APP/PS1 mice without treatment

Counter-ions that a name gives are not always drawn.
